Experimental data taken from PMC5681654, “Dual protein kinase and nucleoside kinase modulators for rationally designed polypharmacology” (Nature Communications, 2017).

Tests used:
Type in all cases: cell-based, human
[1] = tested on: LNCaP (prostate) cancer cell line; test: Cell proliferation assay (CellTiter-Blue), LNCaP; conditions: gemcitabine 0−100 µM or masitinib 0−10 µM alone, 5 days
Text: (§1) […]. […] The absorbance was read at 590 nm.

[2] = tested on: A549 (lung) cancer cell line; test: Cell proliferation assay (CellTiter-Blue), A549; conditions: gemcitabine 0−100 µM or masitinib 0−10 µM alone, 5 days
Text: as §1

[3] = tested on: HRT18 (colon) cancer cell line; test: Cell proliferation assay (CellTiter-Blue), HRT18
Text: as §1

Cc1ccc(NC(=O)c2ccc(CN3CCN(C)CC3)cc2)cc1Nc1nc(-c2cccnc2)cs1 [masitinib]
anti-proliferative effect, single agent [1]: only a slight anti-proliferative activity
anti-proliferative effect, single agent [2]: only a slight anti-proliferative activity
anti-proliferative effect, single agent ([3]; gemcitabine 0−100 µM or masitinib 0−10 µM alone, 5 days): only a slight anti-proliferative activity
effect of adding masitinib to gemcitabine on viable cells ([3]; masitinib 0, 2.5, 5, 10 µM, gemcitabine 0 to 100 µM): reduced the number of viable HRT18 cells
